Data reported in PubChem BioAssay AID529 (NMMLSC, 2006).
The entries are a selection whose mix differs from that of the whole data set. Records with an inconclusive call do not appear. Activity calls are given as the source filed them.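 How the source made its calls: active means inhibition above 50%; inconclusive means compound itself fluorescent, judged against control cell fluorescence; inactive means the rest.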

Sequences of proteins named here, by UniProt entry; tags and fusion partners are left off.
UniProt P13612, whole entry, looked up: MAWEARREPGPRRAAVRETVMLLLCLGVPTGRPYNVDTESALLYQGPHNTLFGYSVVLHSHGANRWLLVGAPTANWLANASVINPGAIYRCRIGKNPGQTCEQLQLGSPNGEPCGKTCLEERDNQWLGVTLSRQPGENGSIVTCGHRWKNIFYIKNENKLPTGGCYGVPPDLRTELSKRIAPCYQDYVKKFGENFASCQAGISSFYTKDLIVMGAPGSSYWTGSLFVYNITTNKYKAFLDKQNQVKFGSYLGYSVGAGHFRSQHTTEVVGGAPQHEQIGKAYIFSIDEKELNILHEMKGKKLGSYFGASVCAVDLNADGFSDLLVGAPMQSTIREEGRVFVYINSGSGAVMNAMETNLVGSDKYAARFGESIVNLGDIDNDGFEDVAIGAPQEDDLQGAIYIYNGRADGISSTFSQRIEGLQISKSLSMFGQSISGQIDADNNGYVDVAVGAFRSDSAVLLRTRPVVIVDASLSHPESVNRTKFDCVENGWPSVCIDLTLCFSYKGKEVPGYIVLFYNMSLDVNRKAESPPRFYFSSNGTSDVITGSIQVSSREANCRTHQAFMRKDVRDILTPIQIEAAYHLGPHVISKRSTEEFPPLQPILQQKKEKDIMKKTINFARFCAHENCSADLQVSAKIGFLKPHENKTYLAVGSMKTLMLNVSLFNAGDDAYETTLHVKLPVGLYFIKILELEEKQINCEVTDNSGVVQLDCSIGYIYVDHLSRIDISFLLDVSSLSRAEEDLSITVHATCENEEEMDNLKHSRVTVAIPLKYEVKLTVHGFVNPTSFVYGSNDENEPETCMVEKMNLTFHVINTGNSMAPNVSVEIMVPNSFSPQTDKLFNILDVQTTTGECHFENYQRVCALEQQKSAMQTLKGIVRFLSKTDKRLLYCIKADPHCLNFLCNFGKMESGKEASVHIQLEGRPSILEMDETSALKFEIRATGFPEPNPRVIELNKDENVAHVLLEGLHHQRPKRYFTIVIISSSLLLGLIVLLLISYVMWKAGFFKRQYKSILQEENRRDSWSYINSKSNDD

Each compound was assayed against Integrin alpha-4 (Homo sapiens) (UniProt P13612) (assay: blockers of LDV-FITC ligand binding on VLA-4 – Jurkat cells, Mn2+ activated, primary screen (AID 529;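 further: 0% = Mn2+ stimulated cells lacking compound and 100% = ligand binding without Mn2+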)). Conditions: LDV-FITC binding with Mn2+, flow cytometry, stronger effect = higher value, screened at 10 µM (by protocol), 100% = Mn2+-driven binding gain fully reversed.
With CP(=S)(Nn1cnnc1)Oc1ccccc1 (stereo unspecified) the inhibition was inactive: -2.5%.
For Cc1ccccc1NP(C)(=O)Nc1ccccc1C, the inhibition was inactive: -4%.
With CP(=O)(Nc1ccc2c(c1)OCCO2)Oc1ccccc1 (stereo unspecified) the inhibition was inactive: -21%.
CN(C)CCOC(=O)C(O)(c1ccccc1)C1CCCCC1 (stereo unspecified) was tested, and the inhibition was inactive: -32%.
In the case of CP(=O)(Nc1ccccn1)Oc1ccccc1 (stereo unspecified), the inhibition is reported as inactive: -23%.
Cc1nc2ccc3ccccc3c2o1.O=[N+]([O-])c1cc([N+](=O)[O-])c(O)c([N+](=O)[O-])c1 showed an inhibition of 75%.
